The values below come from US11186582B2, “Substituted [1,2,4]triazolo[1,5-a]pyrimidin-7-yl compounds as PDE2 inhibitors” (DART NEUROSCIENCE (CAYMAN) LTD., priority 2014, dated 2021).

Sequences of proteins named here, by UniProt entry; tags and fusion partners are left off. Residues count along the entry.
UniProt O00408, 2-941: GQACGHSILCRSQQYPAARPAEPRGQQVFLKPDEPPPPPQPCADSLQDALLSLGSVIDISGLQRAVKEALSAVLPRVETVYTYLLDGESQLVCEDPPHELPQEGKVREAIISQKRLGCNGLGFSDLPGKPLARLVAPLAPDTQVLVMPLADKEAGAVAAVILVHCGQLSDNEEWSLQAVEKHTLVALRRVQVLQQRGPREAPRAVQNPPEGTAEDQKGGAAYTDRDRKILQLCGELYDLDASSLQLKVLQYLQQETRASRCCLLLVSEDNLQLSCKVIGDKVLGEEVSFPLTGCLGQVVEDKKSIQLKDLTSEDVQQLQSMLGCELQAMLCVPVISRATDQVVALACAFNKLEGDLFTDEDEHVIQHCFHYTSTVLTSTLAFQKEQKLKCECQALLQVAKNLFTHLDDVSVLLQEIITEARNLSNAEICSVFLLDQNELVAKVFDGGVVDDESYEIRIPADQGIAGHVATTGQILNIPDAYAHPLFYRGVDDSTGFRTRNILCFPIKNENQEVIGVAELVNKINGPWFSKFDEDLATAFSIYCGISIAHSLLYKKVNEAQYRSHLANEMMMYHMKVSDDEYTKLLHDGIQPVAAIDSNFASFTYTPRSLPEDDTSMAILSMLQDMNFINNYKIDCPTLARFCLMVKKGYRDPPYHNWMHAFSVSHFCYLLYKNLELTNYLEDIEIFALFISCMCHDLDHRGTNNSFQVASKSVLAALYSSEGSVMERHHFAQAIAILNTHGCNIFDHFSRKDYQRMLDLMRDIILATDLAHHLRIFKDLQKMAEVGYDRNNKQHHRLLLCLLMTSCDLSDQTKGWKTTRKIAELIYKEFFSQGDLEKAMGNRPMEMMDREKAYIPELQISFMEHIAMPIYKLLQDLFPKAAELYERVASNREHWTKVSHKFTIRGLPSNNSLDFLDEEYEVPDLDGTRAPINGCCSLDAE

For one experiment, the target named is FLAG-tagged PDE2A1 (amino acids 2-941) (Homo sapiens (Human), UniProt O00408). The experiment in a line: IMAP TR-FRET PDE2A phosphodiesterase enzymatic assay.
Details: not given
`Cc1cc(C2CN(C(=O)c3cccc(C#N)c3)CC(F)(F)C2)n2ncnc2n1` (stereo not shown) [Example 236, 3-[(3,3-Difluoro-5-{5-methyl-[1,2,4]triazolo[1,5-a]pyrimidin-7-yl}piperidin-1-yl)carbonyl]benzonitrile] gave a concentration for half-maximal inhibition (IC50) of 0.1 to 1 µM.

Consider `Cc1cc(C2CN(C(=O)c3ccc(F)c(C(F)(F)F)c3)CC(F)(F)C2)n2ncnc2n1` (stereo not shown) [Example 237, 3,3-Difluoro-1-{[4-fluoro-3-(trifluoromethyl)phenyl]carbonyl}-5-{5-methyl-[1,2,4]triazolo[1,5-a]pyrimidin-7-yl}piperidine], for which the IC50 was in the range of 0.1 to 1 µM.

In the case of `Cc1cc(C2CN(C(=O)c3cccc(C(F)(F)F)c3)CC(F)(F)C2)n2ncnc2n1` (stereo not shown) [Example 238, 3,3-Difluoro-5-{5-methyl-[1,2,4]triazolo[1,5-a]pyrimidin-7-yl}-1-{[3-(trifluoromethyl)phenyl]carbonyl}piperidine], the IC50 fell in the range of 0.1 to 1 µM.

On to `Cc1cc(C2CN(C(=O)c3ccc(C(F)(F)F)cc3)CC(F)(F)C2)n2ncnc2n1` (stereo not shown) [Example 240, 3,3-Difluoro-5-{5-methyl-[1,2,4]triazolo[1,5-a]pyrimidin-7-yl}-1-{[4-(trifluoromethyl)phenyl]carbonyl}piperidine], for which the 50% inhibitory concentration (IC50) lay within 0.1 to 1 µM.

For `Cc1cc([C@H]2CN(C(=O)c3ccc4ccccc4c3)CCO2)n2ncnc2n1` [Example 241, (2R)-2-{5-methyl-[1,2,4]triazolo[1,5-a]pyrimidin-7-yl}-4-[(naphthalen-2-yl)carbonyl]morpholine], the IC50 lay within 0.1 to 1 µM.

`Cc1cc(C2CN(C(=O)c3ccccc3)CC(F)(F)C2)n2ncnc2n1` (stereo not shown) [Example 243, 1-Benzoyl-3,3-difluoro-5-{5-methyl-[1,2,4]triazolo[1,5-a]pyrimidin-7-yl}piperidine] gave an IC50 of 0.1 to 1 µM.

`Cc1cc(C2CN(C(=O)c3cccc(F)c3)CC(F)(F)C2)n2ncnc2n1` (stereo not shown) [Example 245, 3,3-Difluoro-1-[(3-fluorophenyl)carbonyl]-5-{5-methyl-[1,2,4]triazolo[1,5-a]pyrimidin-7-yl}piperidine] yielded a 50% inhibitory concentration (IC50) of 0.1 to 1 µM.

As for `Cc1cc(C2CN(C(=O)c3ccc(C#N)cc3)CC(F)(F)C2)n2ncnc2n1` (stereo not shown) [Example 247, 4-[(3,3-Difluoro-5-{5-methyl-[1,2,4]triazolo[1,5-a]pyrimidin-7-yl}piperidin-1-yl)carbonyl]benzonitrile], the 50% inhibitory concentration (IC50) is 1 to 10 µM.

In the case of `CCOc1cccc(C(=O)N2CC(c3cc(C)nc4ncnn34)CC(F)(F)C2)c1` (stereo not shown) [Example 248, 1-[(3-Ethoxyphenyl)carbonyl]-3,3-difluoro-5-{5-methyl-[1,2,4]triazolo[1,5-a]pyrimidin-7-yl}piperidine], the concentration for half-maximal inhibition (IC50) lay within 0.1 to 1 µM.

In the case of `Cc1cc(C2CN(C(=O)c3cccc(OC(F)(F)F)c3)CC(F)(F)C2)n2ncnc2n1` (stereo not shown) [Example 249, 3,3-Difluoro-5-{5-methyl-[1,2,4]triazolo[1,5-a]pyrimidin-7-yl}-1-{[3-(trifluoromethoxy)phenyl]carbonyl}piperidine], the half-maximal inhibitory concentration (IC50) lay in the range of 0.1 to 1 µM.

Turning to `Cc1cc([C@H]2CN(C(=O)c3cccc(Br)c3)CCO2)n2ncnc2n1` [Example 250, (2R)-4-[(3-Bromophenyl)carbonyl]-2-{5-methyl-[1,2,4]triazolo[1,5-a]pyrimidin-7-yl}morpholine], the IC50 was > 10 µM.

As for `Cc1cc([C@H]2CN(C(=O)c3ccc(F)c(Br)c3)CCO2)n2ncnc2n1` [Example 251, (2R)-4-[(3-Bromo-4-fluorophenyl)carbonyl]-2-{5-methyl-[1,2,4]triazolo[1,5-a]pyrimidin-7-yl}morpholine], the concentration for half-maximal inhibition (IC50) is 1 to 10 µM.

In the case of `Cc1cc([C@@H]2CN(C(=O)c3cc(Cl)cc(Cl)c3)CCO2)n2ncnc2n1` [Example 252, (2S)-4-[(3,5-Dichlorophenyl)carbonyl]-2-{5-methyl-[1,2,4]triazolo[1,5-a]pyrimidin-7-yl}morpholine], the IC50 is 0.1 to 1 µM.

Consider `Cc1cc([C@H]2CN(C(=O)c3cc(Cl)cc(Cl)c3)CCO2)n2ncnc2n1` [Example 255, (2R)-4-[(3,5-Dichlorophenyl)carbonyl]-2-{5-methyl-[1,2,4]triazolo[1,5-a]pyrimidin-7-yl}morpholine], for which the concentration for half-maximal inhibition (IC50) was > 10 µM.

In the case of `Cc1cc(C2CN(C(=O)c3cc(F)cc(Br)c3)CCO2)n2ncnc2n1` (stereo not shown) [Example 256, 4-[(3-Bromo-5-fluorophenyl)carbonyl]-2-{5-methyl-[1,2,4]triazolo[1,5-a]pyrimidin-7-yl}morpholine], the IC50 lay within 0.1 to 1 µM.

Turning to `Cc1cc(C2CN(C(=O)c3cccc(S(F)(F)(F)(F)F)c3)CC(F)(F)C2)n2ncnc2n1` (stereo not shown) [Example 260, 3,3-Difluoro-5-{5-methyl-[1,2,4]triazolo[1,5-a]pyrimidin-7-yl}-1-{[3-(pentafluorosulfanyl)phenyl]carbonyl}piperidine], the IC50 lay within 0.1 to 1 µM.

In the case of `Cc1cc(C2CN(C(=O)c3cccc(S(F)(F)(F)(F)F)c3)CCO2)n2ncnc2n1` (stereo not shown) [Example 261, 2-{5-Methyl-[1,2,4]triazolo[1,5-a]pyrimidin-7-yl}-4-{[3-(pentafluorosulfanyl)phenyl]carbonyl}morpholine], the IC50 fell in the range of 1 to 10 µM.

In the case of `Cc1cc(C2CN(C(=O)c3cc(Cl)ccn3)CCO2)n2ncnc2n1` (stereo not shown) [Example 264, 4-[(4-Chloropyridin-2-yl)carbonyl]-2-{5-methyl-[1,2,4]triazolo[1,5-a]pyrimidin-7-yl}morpholine], the IC50 lay within 1 to 10 µM.

`Cc1cc(C2CN(C(=O)c3cc(Cl)ccn3)CC(F)(F)C2)n2ncnc2n1` (stereo not shown) [Example 265, 4-Chloro-2-[(3,3-difluoro-5-{5-methyl-[1,2,4]triazolo[1,5-a]pyrimidin-7-yl}piperidin-1-yl)carbonyl]pyridine] had an IC50 of 0.1 to 1 µM.

Regarding `Cc1cc(C2CN(C(=O)c3cccnc3Oc3ccc(Cl)cc3)CC(F)(F)C2)n2ncnc2n1` (stereo not shown) [Example 266, 2-(4-Chlorophenoxy)-3-[(3,3-difluoro-5-{5-methyl-[1,2,4]triazolo[1,5-a]pyrimidin-7-yl}piperidin-1-yl)carbonyl]pyridine], the half-inhibitory concentration (IC50) lay within 0.1 to 1 µM.

In the case of `Cc1cc(C2CN(C(=O)c3ccc(C(F)(F)F)nc3C)CCO2)n2ncnc2n1` (stereo not shown) [Example 267, 4-{[2-Methyl-6-(trifluoromethyl)pyridin-3-yl]carbonyl}-2-{5-methyl-[1,2,4]triazolo[1,5-a]pyrimidin-7-yl}morpholine], the IC50 is > 10 µM.

The compound `Cc1cc(C2CN(C(=O)c3ccc(C(F)(F)F)nc3C)CC(F)(F)C2)n2ncnc2n1` (stereo not shown) [Example 272, 3-(3,3-Difluoro-5-{5-methyl-[1,2,4]triazolo[1,5-a]pyrimidin-7-yl}piperidine-1-carbonyl)-2-methyl-6-(trifluoromethyl)pyridine] displayed an IC50 of 1 to 10 µM.

Staying with this experiment, now noted: IMAP TR-FRET, 200 nM FAM-cAMP substrate, 11-point half-log dose-response.
On to `Cc1cc(C2CN(C(=O)c3cccc(Cl)c3)CC(F)(F)C2)n2ncnc2n1` (stereo not shown) [Example 232, 1-[(3-Chlorophenyl)carbonyl]-3,3-difluoro-5-{5-methyl-[1,2,4]triazolo[1,5-a]pyrimidin-7-yl}piperidine], for which the “PDE2 (pIC50)” value is >7.

For the compound `Cc1cc(C2CN(C(=O)c3cc(Cl)cc(Cl)c3)CC(F)(F)C2)n2ncnc2n1` (stereo not shown) [Example 233, 1-[(3,5-Dichlorophenyl)carbonyl]-3,3-difluoro-5-{5-methyl-[1,2,4]triazolo[1,5-a]pyrimidin-7-yl}piperidine], the “PDE2 (pIC50)” value is >7.

On to `Cc1cc([C@@H]2CN(C(=O)c3ccc4ccccc4c3)CCO2)n2ncnc2n1` [Example 242, (2S)-2-{5-Methyl-[1,2,4]triazolo[1,5-a]pyrimidin-7-yl}-4-[(naphthalen-2-yl)carbonyl]morpholine], for which the “PDE2 (pIC50)” value is reported as >7.

For `Cc1cc([C@@H]2CN(C(=O)c3cccc(Br)c3)CCO2)n2ncnc2n1` [Example 253, (2S)-4-[(3-Bromophenyl)carbonyl]-2-{5-methyl-[1,2,4]triazolo[1,5-a]pyrimidin-7-yl}morpholine], the “PDE2 (pIC50)” value was >7.

As for `Cc1cc([C@@H]2CN(C(=O)c3ccc(F)c(Br)c3)CCO2)n2ncnc2n1` [Example 254, (2S)-4-[(3-Bromo-4-fluorophenyl)carbonyl]-2-{5-methyl-[1,2,4]triazolo[1,5-a]pyrimidin-7-yl}morpholine], the “PDE2 (pIC50)” value is >7.

Take `Cc1cc(C2CN(C(=O)c3cc(Br)cc(Br)c3)CCO2)n2ncnc2n1` (stereo not shown) [Example 257, 4-[(3,5-Dibromophenyl)carbonyl]-2-{5-methyl-[1,2,4]triazolo[1,5-a]pyrimidin-7-yl}morpholine]: the “PDE2 (pIC50)” value is reported as >7.

On to `Cc1cc(C2CN(C(=O)c3cc(F)cc(Br)c3)CC(F)(F)C2)n2ncnc2n1` (stereo not shown) [Example 258, 1-[(3-Bromo-5-fluorophenyl)carbonyl]-3,3-difluoro-5-{5-methyl-[1,2,4]triazolo[1,5-a]pyrimidin-7-yl}piperidine], for which the “PDE2 (pIC50)” value is reported as >7.

In the case of `Cc1cc(C2CN(C(=O)c3cc(Br)cc(Br)c3)CC(F)(F)C2)n2ncnc2n1` (stereo not shown) [Example 259, 1-[(3,5-Dibromophenyl)carbonyl]-3,3-difluoro-5-{5-methyl-[1,2,4]triazolo[1,5-a]pyrimidin-7-yl}piperidine], the “PDE2 (pIC50)” value is recorded as >7.

Regarding `Cc1cc(C2CN(C(=O)c3ccc(C)c(Br)c3)CC(F)(F)C2)n2ncnc2n1` (stereo not shown) [Example 262, 1-[(3-Bromo-4-methylphenyl)carbonyl]-3,3-difluoro-5-{5-methyl-[1,2,4]triazolo[1,5-a]pyrimidin-7-yl}piperidine], the “PDE2 (pIC50)” value was >7.

In the case of `Cc1cc(C2CN(C(=O)c3ccc(C)c(Br)c3)CCO2)n2ncnc2n1` (stereo not shown) [Example 263, 4-[(3-Bromo-4-methylphenyl)carbonyl]-2-{5-methyl-[1,2,4]triazolo[1,5-a]pyrimidin-7-yl}morpholine], the “PDE2 (pIC50)” value is given as >7.

Regarding `Cc1cc([C@H]2CN(C(=O)c3cc(F)cc(Br)c3)CC(F)(F)C2)n2ncnc2n1` [Example 270, (5R)-1-(3-Bromo-5-fluorobenzoyl)-3,3-difluoro-5-{5-methyl-[1,2,4]triazolo[1,5-a]pyrimidin-7-yl}piperidine], the “PDE2 (pIC50)” value was >7.

Turning to `Cc1cc([C@@H]2CN(C(=O)c3cc(F)cc(Br)c3)CC(F)(F)C2)n2ncnc2n1` [Example 271, (5S)-1-(3-Bromo-5-fluorobenzoyl)-3,3-difluoro-5-{5-methyl-[1,2,4]triazolo[1,5-a]pyrimidin-7-yl}piperidine], the “PDE2 (pIC50)” value is recorded as >7.
